# Tested on: LLCMK2 cells
# Test: Mammalian cell viability assay (MTT)
# Format: cell-based
# Details: EC50 LLCMK2 / IC50 T. cruzi amastigote
# Procedure: LLCMK2 cells were maintained in RPMI-1640 medium supplemented with 10% fetal bovine serum (FBS) (Gibco, Carlsbad, CA, USA), penicillin/streptomycin (100 μg.mL^−1 and 0.1 mg.mL^−1, respectively, Sigma-Aldrich, St. Louis, Mo, USA) and 2 mM L-glutamine, and treated every second day. […] All cells were maintained in humidified CO2 at 37 °C. Cells were obtained at the third passage, propagated, and used in experiments between the fourth and fifth passages. Cells were routinely checked for contamination with mycoplasma by PCR. […] The principle of this method, as described by Mosmann et al., consists in measuring the cellular viability of the enzymatic activity of […] of living cells. […] At the end of the period incubation. 50 μL MTT (Sigma-Aldrich Corp. St. Louis, MO, USA) at the concentration of 2 mg.mL^−1. After 4 h incubation, 50 μL DMSO per well was added to dissolve formazan blue crystals. The absorbance was determined at 570 nm using Biotek Synergy HT microplate spectrophotometer. The percentage of cell viability was determined from the following formula (40): Cell Viability (%) = (Treatment Absorbance)/(Control Absorbance negative) × 100.
row,Structure (SMILES),"SIama, selectivity index (EC50/IC50(ama))"
1,O=C(NCc1coc(-c2ccccc2)n1)Nc1ccc(-c2noc(C(F)(F)F)n2)cc1 [CDMS-01],1.77
2,"O=C(Cn1ccnc1[N+](=O)[O-])NCc1ccccc1 [BZN, benznidazole, reference compound]",44.8

# From paper PMC10057528, “Trypanosoma cruzi Sirtuin 2 as a Relevant Druggable Target: New Inhibitors Developed by Computer-Aided Drug Design” (Pharmaceuticals, 2023)
